SMILES strings stand for the structures.

The species named for this experiment is Homo sapiens. Kind of experiment: Selectivity index, ratio of IC50 for recombinant human HDAC1 to IC50 for recombinant human HDAC3.
As for `CCCNNC(=O)c1ccc(CNC(=O)c2cnc(-c3ccc4ccccc4c3)[nH]2)cc1`, the Selectivity Index came to 24.

Consider `CCCNNC(=O)c1ccc(CNC(=O)c2cnc(-c3cccc4ccccc34)[nH]2)cc1`, for which the Selectivity Index is 33.

Regarding `CCCNNC(=O)c1ccc(CNC(=O)c2cnc(-c3ccccc3)[nH]2)cc1`, the Selectivity Index worked out at 33.

With `CCCNNC(=O)c1ccc(CNC(=O)c2cnc(-c3ccc4occc4c3)[nH]2)cc1`, the Selectivity Index amounted to 75.

These data come from ChEMBL document CHEMBL6121046, “Discovery of Novel Hydrazide-Based HDAC3 Inhibitors as Epigenetic Immunomodulators for Cancer Immunotherapy” (J Med Chem, 2025).
